The test system of series [1] is voltage-gated Ca^2+ channels (VGCC). Briefly: Calcium channel antagonist assay (K+-evoked cytosolic Ca2+, Fluo-4). It counts as cell-based. Particulars: read-out: IC50 (µM) Calcium channels blockade, SH-SY5Y cells, K+ 70 mM, mean ± SEM. On the procedure: The cytosolic Ca^2+ has been measured in SH-SY5Y cells. SH-SY5Y cells were maintained similarly to what was previously described^30. Free cytosolic Ca^2+ was measured using the fluorescent Ca^2+ indicator Fluo-4/AM (Fluo-4 acetomethoxyester). SH-SY5Y cells were seeded onto 96-well black plates at a density of 10^5 cells per well, achieving confluence after 48 h. Cells were washed with Krebs-Hepes solution (KH, in mM: 144 NaCl, 5.9 KCl, 1.2 MgCl2, 2 CaCl2, 11 D-glucose, 10 HEPES, pH 7.4). Cells were loaded with 10 µM Fluo-4/AM and 0.2% pluronic acid in KH and incubated for 45 min at 37 °C in the dark. Then, cells were washed twice with KH to remove the excess of probe. […] To normalize Fluo-4 signals, Triton X-100 (5%) and 1 M MnCl2 were applied to register both maximal and minimal fluorescence, respectively. The experiments were analyzed at excitation and emission wavelengths of 485 and 520 nm, respectively, and fluorescence was measured in a fluorescence microplate reader (FLUOstar Optima, BMG, Germany). Data were calculated as a percentage of Fmax - Fmin.
The blocking effect of the depolarization-induced Ca^2+ uptake was investigated in SH-SY5Y neuroblastoma cells stimulated with an extracellular concentration of K+ 70 mM, which induces the cell Ca^2+ levels elevation by opening voltage-gated Ca^2+ channels (VGCC), monitored with the Ca^2+-sensitive fluorescent dye Fluo-4. […]

Amino acid sequences for entries named in this document (tags omitted). Residues count along the entry.
UniProt P05067, 672-713 limits assumed: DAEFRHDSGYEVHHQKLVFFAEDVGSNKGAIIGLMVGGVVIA
UniProt P21397, whole entry: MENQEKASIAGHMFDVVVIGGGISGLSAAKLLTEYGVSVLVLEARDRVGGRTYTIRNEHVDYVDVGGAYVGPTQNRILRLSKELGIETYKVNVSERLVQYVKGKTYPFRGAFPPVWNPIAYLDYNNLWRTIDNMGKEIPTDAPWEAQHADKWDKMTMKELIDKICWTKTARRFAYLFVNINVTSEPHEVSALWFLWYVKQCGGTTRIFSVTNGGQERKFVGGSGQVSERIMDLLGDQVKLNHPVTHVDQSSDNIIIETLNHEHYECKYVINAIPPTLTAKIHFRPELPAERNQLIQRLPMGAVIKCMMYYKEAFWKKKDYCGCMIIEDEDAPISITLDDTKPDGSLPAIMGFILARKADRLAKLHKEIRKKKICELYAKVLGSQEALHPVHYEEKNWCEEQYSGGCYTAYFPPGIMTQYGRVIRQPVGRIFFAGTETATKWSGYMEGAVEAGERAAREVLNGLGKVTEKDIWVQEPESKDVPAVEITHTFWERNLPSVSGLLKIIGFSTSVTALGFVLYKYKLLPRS
UniProt P27338, whole entry: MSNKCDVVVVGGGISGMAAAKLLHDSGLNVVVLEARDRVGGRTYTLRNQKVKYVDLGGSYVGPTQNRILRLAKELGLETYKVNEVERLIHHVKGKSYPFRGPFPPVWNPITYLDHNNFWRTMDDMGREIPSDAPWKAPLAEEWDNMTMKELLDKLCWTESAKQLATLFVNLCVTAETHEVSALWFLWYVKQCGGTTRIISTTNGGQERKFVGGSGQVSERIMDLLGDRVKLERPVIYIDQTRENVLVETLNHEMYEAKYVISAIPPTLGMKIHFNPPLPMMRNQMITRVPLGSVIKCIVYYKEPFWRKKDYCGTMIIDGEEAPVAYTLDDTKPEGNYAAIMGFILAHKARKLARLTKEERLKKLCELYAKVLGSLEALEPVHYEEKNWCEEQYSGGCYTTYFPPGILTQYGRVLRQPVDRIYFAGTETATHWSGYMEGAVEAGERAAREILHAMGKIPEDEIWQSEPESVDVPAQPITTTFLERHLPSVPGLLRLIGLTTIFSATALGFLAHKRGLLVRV
UniProt P49841, whole entry: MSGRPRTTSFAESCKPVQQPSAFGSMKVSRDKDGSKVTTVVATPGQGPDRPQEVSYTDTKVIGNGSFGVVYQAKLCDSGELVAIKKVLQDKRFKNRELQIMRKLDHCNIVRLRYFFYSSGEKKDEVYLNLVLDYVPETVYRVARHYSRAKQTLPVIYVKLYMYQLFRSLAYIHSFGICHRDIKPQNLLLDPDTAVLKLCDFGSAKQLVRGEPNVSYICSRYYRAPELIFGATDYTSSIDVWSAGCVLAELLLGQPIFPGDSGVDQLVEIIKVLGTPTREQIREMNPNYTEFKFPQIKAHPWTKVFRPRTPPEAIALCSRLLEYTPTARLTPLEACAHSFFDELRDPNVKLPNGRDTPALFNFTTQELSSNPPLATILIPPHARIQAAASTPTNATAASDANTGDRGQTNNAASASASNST
UniProt P10636, 623-653 limits assumed: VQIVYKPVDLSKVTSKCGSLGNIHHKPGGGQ
UniProt P22303, 32-617 isoform 2 limits assumed: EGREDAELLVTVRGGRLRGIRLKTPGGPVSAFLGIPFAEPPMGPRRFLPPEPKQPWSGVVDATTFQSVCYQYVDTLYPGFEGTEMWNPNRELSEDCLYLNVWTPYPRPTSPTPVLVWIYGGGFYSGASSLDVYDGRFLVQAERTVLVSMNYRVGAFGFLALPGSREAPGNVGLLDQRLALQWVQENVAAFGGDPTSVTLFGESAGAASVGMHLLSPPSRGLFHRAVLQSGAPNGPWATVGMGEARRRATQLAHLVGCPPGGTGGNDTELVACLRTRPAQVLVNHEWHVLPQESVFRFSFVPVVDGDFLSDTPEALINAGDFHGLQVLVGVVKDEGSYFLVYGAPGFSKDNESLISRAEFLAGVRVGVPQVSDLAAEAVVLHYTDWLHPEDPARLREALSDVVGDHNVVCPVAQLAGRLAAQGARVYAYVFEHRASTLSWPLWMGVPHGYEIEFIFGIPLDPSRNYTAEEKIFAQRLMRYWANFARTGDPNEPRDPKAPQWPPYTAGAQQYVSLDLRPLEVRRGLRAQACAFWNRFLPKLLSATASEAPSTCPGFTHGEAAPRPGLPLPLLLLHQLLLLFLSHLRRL

The next series has as its target Aβ1-42 (Homo sapiens, UniProt P05067). The experiment in a line: Inhibition of Aβ1-42 self-aggregation (ThT fluorescence). It counts as biochemical. Particulars: [Inhibitor]=[Aβ1-42]=50 µM, mean ± SEM. On the procedure: 1,1,1,3,3,3-Hexafluoro-2-propanol (HFIP) pre-treated Aβ1-42 samples (Bachem AG, Switzerland) were resolubilized with a MeCN/Na2CO3/NaOH (48.4/48.4/3.2) mixture to have a stable stock solution ([Aβ1-42]=500 µM)^35. Experiments were performed by incubating the peptide in 10 mM phosphate buffer (pH=8.0) containing 10 mM NaCl, at 30 °C for 24 h (final Aβ concentration=50 µM with and without inhibitor (50 µM). The inhibitor was dissolved in methanol and diluted in the assay buffer. Blanks containing inhibitor and ThT were also prepared and evaluated to account for quenching and fluorescence properties. To quantify amyloid fibril formation, the ThT fluorescence method was used^36, 37. After incubation, samples were diluted to a final volume of 2.0 mL with […] glycine-NaOH buffer (pH= 8.5) containing 1.5 µM ThT. A 300-seconds-time scan of fluorescence intensity was carried out (λexc=446 nm; λem=490 nm), and values at plateau were averaged after subtracting the background fluorescence of 1.5 µM ThT solution. The fluorescence intensities were compared and the % inhibition was calculated.
The inhibitory activity of compounds BIGI-3e, BIGI-3h and BIGI-3k against the spontaneous aggregation of Aβ1-42 was determined in vitro using a thioflavin T (ThT)-based fluorometric assay^35. […].

The target in the next series is MAO-A (Homo sapiens, UniProt P21397). The experiment in a line: Monoamine oxidase inhibition (kynuramine), MAO-A. It counts as biochemical. The following applies: 42 nM MAO-A, kynuramine 50 µM, mean ± SEM; for IC50: read-out: MAO A (IC50 µM).
The next series concerns the target MAO-B (Homo sapiens, UniProt P27338). Briefly: Monoamine oxidase inhibition (kynuramine), MAO-B. It counts as biochemical. Particulars: read-out: MAO B (IC50 µM), 200 nM MAO-B, kynuramine 50 µM, mean ± SEM.
Another series addresses Human recombinant GSK-3β (Homo sapiens, UniProt P49841). Briefly: GSK-3β inhibition in vitro assay (Kinase-Glo luminescence). It counts as biochemical. The following applies: read-out: GSK-3β inhibition (IC50 µM), ATP 1 µM, GSM substrate 25 µM, mean ± SEM. On the procedure: Human recombinant GSK-3β, prephosphorylated polypeptide substrate and white 96-well plates were purchased from Millipore (Millipore Iberica S.A.U.). Kinase-Glo Luminescent Kinase Assay was obtained from Promega (Promega Biotech Iberica, SL). Adenosinetriphosphate (ATP) and all other reagents were from Sigma-Aldrich. Assay buffer contained 50 mM 4-(2-hydroxyethyl)-1- piperazineethanesulfonic acid (HEPES) (pH 7.5), 1 mM ethylenediaminetetraacetic acid (EDTA), 1 mM ethylene glycol tetraacetic acid (EGTA), and 15 mM magnesium acetate. The in solution experiments for GSK-3β inhibition analysis were performed by following the method developed by Baki et al^42. In a typical assay, 10 µL of test compound (dissolved in DMSO at 1 mM concentration and diluted in advance in assay buffer to the desired concentration) and 10 µL (20 ng) of enzyme were added to each well in presence of 20 µL of assay buffer containing GSM substrate and ATP in order to reach a 25 µM and 1 µM final concentration respectively. […] After a 30 min incubation time at 30 °C, the enzymatic reaction was stopped by adding 40 µL of Kinase-Glo reagent. Glow-type luminescence was recorded after 10 min using a VictorX 3 PerkinElmer plate reader. […]. The linear regression parameters were determined and the IC50 extrapolated (GraphPad Prism 4.0, GraphPad Software Inc.).
(Kinase-Glo measures the ATP left after a reaction by luminescence.)

The target of the next series is Tau(306-336) peptide (Homo sapiens, UniProt P10636). Particulars: Tau(306-336) 50 µM, inhibitor 50 µM (1:1 ratio), mean ± SEM.
The target in series [2] is Human red-blood cell acetylcholinesterase (hAChE; EC 3.1.1.7) (Homo sapiens, UniProt P22303). The following applies: read-out: AChE (IC50 µM), pH 7.4, 37 °C, mean ± SEM.
Series [3] is described as follows: Prediction of blood-brain barrier penetration (PAMPA). It counts as in vitro ADME. The following applies: PBS pH 7.4, 50 µM in donor well. As to the method:
To predict passive blood-brain penetration of novel compounds modification of the parallel artificial membrane permeation (PAMPA) assay has been used based on reported protocol^38, 39. The filter membrane of the donor plate was coated with PBL (Polar Brain Lipid, Avanti, USA) in dodecane (4 µl of 20 mg/ml PBL in dodecane) and the acceptor well was filled with 300 µl of PBS pH 7.4 buffer (VD). Tested compounds were dissolved first in DMSO (0.5% (V/V) final) and that diluted with PBS pH 7.4 to reach the final concentration 50 µM in the donor well. 300 µl of the donor solution was added to the donor wells (VA) and the donor filter plate was carefully put on the acceptor plate so that coated membrane was "in touch" with both donor solution and acceptor buffer. Test compound diffused from the donor well through the lipid membrane (Area=0.28cm^2) to the acceptor well. The concentration of the drug in both donor and the acceptor wells was assessed after 3, 4, 5 and 6 hours of incubation in quadruplicate using the UV plate reader Synergy HT (Biotek, USA) at the maximum absorption wavelength and the standard curve for each compound. […]

Structures are written as SMILES. Like-named read-outs stand apart in the source and are kept apart here.

Broadly, the IC50 is the concentration needed to halve the response being measured. In the case of `CCOC(=O)C1=C(C)N(CCC2CCN(Cc3ccccc3)CC2)C(=O)NC1c1coc2c(Cl)cc(Cl)cc2c1=O` (single isomer, unassigned) [BIGI-3h ISO2 (-)], the IC50 came out at 1.6 µM in series [1]; 195 µM on MAO-A; 12.3 µM on MAO-B; 12.3 µM at MAO-B (listed as BIGI-3h ISO2); 24.3 µM on Human recombinant GSK-3β; 24.3 µM at Human recombinant GSK-3β (listed as BIGI-3h ISO2). Moreover, the IC50 in series [2] came out at 0.07 µM. The “% inhibition Aβ1-42 aggregation” value at Aβ1-42 stood at 63.5 ± 0.2%. The “MAO A (IC50 µM)” value on MAO-A is listed as “modest inhibition”. Besides, the “Inhibition of T (306-336) peptide self - aggregation (%)” value at Tau(306-336) peptide is listed as 75.3 ± 1.6%.

Take `CCOC(=O)C1=C(C)N(CCC2CCN(Cc3ccccc3)CC2)C(=O)NC1c1coc2c(Cl)cc(Cl)cc2c1=O` (single isomer, unassigned) [BIGI-3h ISO1 (+)]: the IC50 in series [1] is 5 µM; at MAO-A, 75.6 µM; on MAO-B, 11.2 µM; on Human recombinant GSK-3β it was 10.6 µM; in series [2], 0.09 µM. Besides, the “% inhibition Aβ1-42 aggregation” value at Aβ1-42 is reported as 66.5 ± 0.9%. Further, in series [3], the “Pe ± SEM (*10^-6 cm s^-1)” value is 6.7 ± 0.4 *10^-6 cm s^-1. At MAO-A, the “MAO A (IC50 µM)” value is on record as “modest inhibition”. In addition, the “Inhibition of T (306-336) peptide self - aggregation (%)” value on Tau(306-336) peptide was found to be 78.3 ± 3.0%.

Source of the values: patent publication EP4168403B1 (priority 2020, dated 2021).
